In patent US12194007B2, “Pharmaceutical composition for preventing or treating cancer, comprising gossypol, phenformin, and anticancer agent” (National Cancer Center, priority 2018, dated 2025):

Test system: UACC62 cell line or an A375 cell line
Assay: SRB cell proliferation assay, melanoma cell lines
Format: cell-based
Details: vemurafenib 0.5 μM, cisplatin 10 μM or oxaliplatin 10 μM + gossypol 5 μM + phenformin 100 μM

How did the “synergistic effect of anticancer action when mixed with gossypol and phenformin” value turn out when `O=C1[O][Pt]2([NH][C@@H]3CCCC[C@H]3[NH]2)[O]C1=O` [oxaliplatin] was run?
Its value is “not exhibited”.
